Results: ChEMBL document CHEMBL4346723, “Targeting tropomyosin receptor kinase for cancer therapy” (Eur J Med Chem, 2019)

Chains of the proteins cited; added tags and fusions are not shown. Lines headed by an entry give the natural chain unless they say otherwise; changes in a name come on top.
UniProt P04629: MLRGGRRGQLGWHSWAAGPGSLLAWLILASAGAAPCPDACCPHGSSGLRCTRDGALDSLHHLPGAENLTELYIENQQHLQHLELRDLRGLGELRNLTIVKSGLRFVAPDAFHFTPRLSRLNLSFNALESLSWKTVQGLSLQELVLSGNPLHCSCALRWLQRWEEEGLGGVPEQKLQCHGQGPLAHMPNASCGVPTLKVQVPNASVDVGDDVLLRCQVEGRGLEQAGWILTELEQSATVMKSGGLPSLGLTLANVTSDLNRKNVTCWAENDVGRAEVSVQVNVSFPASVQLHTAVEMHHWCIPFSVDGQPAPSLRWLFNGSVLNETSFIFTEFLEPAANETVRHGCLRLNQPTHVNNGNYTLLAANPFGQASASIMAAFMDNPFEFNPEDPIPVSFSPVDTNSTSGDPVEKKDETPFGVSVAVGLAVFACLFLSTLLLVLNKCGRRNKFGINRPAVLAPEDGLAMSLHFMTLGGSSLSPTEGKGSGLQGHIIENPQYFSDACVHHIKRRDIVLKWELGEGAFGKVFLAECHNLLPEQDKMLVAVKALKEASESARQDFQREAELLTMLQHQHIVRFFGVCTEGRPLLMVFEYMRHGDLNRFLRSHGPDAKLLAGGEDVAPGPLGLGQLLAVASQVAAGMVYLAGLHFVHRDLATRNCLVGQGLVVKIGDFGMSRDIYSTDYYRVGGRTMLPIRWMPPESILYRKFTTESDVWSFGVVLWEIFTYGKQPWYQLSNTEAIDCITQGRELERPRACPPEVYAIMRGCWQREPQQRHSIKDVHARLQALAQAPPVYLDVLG
UniProt Q16620, whole entry, looked up: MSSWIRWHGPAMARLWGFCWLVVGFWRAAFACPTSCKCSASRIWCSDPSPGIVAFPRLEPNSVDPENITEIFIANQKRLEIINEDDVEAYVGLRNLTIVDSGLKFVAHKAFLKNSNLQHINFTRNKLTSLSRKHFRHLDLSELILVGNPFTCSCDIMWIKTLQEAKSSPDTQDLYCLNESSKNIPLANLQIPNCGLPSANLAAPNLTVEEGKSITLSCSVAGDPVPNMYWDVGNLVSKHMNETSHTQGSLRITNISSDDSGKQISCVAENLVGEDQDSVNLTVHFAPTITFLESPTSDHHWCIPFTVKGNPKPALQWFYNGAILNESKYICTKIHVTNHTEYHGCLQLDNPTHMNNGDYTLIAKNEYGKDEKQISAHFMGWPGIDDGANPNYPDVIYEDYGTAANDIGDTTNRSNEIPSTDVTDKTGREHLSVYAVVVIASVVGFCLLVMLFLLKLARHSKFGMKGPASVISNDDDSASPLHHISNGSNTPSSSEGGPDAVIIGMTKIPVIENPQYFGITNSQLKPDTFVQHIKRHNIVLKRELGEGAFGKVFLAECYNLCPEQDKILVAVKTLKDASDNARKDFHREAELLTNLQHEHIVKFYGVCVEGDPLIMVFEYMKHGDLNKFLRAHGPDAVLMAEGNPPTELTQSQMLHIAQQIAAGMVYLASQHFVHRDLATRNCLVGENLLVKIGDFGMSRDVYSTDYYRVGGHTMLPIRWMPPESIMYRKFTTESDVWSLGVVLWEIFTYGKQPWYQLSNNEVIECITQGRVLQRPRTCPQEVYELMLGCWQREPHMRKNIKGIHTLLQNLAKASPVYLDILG
UniProt Q16288, whole entry, looked up: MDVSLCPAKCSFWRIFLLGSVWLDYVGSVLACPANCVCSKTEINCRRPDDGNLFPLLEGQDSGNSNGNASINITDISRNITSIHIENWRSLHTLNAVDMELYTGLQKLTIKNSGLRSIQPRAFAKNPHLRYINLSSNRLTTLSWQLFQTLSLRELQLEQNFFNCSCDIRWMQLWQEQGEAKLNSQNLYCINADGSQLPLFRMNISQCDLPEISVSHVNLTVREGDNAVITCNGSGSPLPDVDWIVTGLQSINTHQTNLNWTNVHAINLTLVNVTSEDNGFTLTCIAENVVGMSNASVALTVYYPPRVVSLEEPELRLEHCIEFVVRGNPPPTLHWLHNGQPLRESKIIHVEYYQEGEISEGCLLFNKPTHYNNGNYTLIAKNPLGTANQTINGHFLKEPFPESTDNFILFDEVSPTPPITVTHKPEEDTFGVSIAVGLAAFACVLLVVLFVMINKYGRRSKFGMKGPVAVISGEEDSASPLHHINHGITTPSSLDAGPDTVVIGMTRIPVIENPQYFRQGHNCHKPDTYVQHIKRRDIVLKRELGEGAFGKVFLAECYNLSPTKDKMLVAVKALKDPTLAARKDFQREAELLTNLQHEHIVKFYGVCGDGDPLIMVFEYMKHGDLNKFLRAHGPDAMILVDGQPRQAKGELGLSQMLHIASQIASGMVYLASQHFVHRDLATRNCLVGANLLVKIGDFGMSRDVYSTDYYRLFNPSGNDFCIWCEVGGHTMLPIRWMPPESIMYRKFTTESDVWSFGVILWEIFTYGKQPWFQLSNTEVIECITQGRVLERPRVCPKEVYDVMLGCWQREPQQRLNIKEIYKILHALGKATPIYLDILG

Legend:
Details in all cases: 10 uM
[1] = target: High affinity nerve growth factor receptor (Homo sapiens, UniProt P04629)
[2] = target: BDNF/NT-3 growth factors receptor (Homo sapiens, UniProt Q16620)
[3] = target: NT-3 growth factor receptor (Homo sapiens, UniProt Q16288)

Measured: inhibition

Cc1cn(-c2cc(C(=O)Nc3cccc(Nc4ccc5c(c4)NC(=O)/C5=C\c4ccc[nH]4)c3)cc(C(F)(F)F)c2)cn1
> 50%: [1] | [2] | [3]
